Laboratory results taken from ChEMBL document CHEMBL1154476 (Eur J Med Chem, 2008).

Biological target: T1, Ribosyldihydronicotinamide dehydrogenase [quinone] (Homo sapiens, UniProt P16083)
T1 sequence (P16083 whole entry): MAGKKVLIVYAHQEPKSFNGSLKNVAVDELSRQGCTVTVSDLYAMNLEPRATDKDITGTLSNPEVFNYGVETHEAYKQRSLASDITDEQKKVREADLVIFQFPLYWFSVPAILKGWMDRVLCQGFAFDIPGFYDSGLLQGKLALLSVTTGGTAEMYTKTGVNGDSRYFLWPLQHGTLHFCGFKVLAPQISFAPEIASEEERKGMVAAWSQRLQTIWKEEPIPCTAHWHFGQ
Test: Displacement of [125I]iodomelatonin from MT3/QR2 melatonin binding site expressed in CHO cells
Assay type: cell-based

## COC(=O)Nc1ccc2[nH]cc(CCNC(C)=O)c2c1
  IC50: 57.5 nM
